The values below are quoted from earlier work in publication PMC4441727.

The chains behind the UniProt entries cited, without tags or fusion partners.
UniProt Q16665, whole entry, looked up, tested part not stated: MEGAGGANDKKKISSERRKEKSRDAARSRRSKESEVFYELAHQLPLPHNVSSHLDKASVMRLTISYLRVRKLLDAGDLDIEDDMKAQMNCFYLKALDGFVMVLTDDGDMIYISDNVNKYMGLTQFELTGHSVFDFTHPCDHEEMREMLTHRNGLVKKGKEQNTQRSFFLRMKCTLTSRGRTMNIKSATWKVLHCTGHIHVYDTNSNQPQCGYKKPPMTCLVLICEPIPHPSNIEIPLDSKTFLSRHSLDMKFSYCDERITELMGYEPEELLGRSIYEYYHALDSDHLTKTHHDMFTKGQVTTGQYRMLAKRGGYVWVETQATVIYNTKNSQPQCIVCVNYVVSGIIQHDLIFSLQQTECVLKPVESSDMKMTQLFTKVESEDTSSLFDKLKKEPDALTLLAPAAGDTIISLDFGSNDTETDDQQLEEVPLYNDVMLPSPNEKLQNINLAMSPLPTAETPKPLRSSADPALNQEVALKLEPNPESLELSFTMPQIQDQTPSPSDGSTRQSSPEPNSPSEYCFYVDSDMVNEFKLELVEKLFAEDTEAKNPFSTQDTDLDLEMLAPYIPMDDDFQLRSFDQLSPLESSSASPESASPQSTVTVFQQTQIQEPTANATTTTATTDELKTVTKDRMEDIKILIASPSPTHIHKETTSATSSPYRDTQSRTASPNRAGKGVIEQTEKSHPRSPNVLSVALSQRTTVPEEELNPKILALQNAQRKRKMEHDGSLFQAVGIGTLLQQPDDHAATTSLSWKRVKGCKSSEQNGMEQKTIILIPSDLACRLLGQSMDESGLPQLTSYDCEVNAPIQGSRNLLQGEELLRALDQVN
UniProt P40337, whole entry: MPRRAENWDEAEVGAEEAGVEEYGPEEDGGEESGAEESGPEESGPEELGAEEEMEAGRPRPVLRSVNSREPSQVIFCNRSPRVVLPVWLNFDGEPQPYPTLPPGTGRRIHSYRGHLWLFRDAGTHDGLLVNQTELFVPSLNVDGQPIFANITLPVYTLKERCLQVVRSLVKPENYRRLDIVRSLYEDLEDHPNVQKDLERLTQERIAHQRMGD

The target in the data set is FAM-labeled HIF-1α peptide (Homo sapiens) (UniProt Q16665).

pKd: −log10 of the molar value.

For the substance “von Hippel Lindau protein (pVHL)-Elongin B-Elongin C complex (from UniProt P40337)”, the negative-log Kd (pKd) is 6.40.

What is called pKd is the negative decadic logarithm of the Kd, by convention in mol/L.
